This is a selection; strong and weak results do not stand in their true shares. The source made the active and inactive calls. Cut-off read from the data, not from the text of the source: active = growth inhibition above about 70%; inactive = the rest.
Tests used:
[1] = NCI Yeast Anticancer Drug Screen. Data for the rad50 strain (AID 155);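 note: 0% = growth of vehicle-only cultures of the same strain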; conditions: S. cerevisiae rad50 strain growth inhibition; at 50.0 µM; active compounds read high
[2] = NCI Yeast Anticancer Drug Screen. Data for the mec2-1 strain (AID 157); conditions: S. cerevisiae mec2-1 strain, at 50.0 µM, active compounds read high
[3] = NCI Yeast Anticancer Drug Screen. Data for the sgs1 mgt1 strain (AID 161);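 note: 0% = growth of cultures given vehicle only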; conditions: S. cerevisiae sgs1 mgt1 strain, at 50.0 µM, active compounds read high
[4] = NCI Yeast Anticancer Drug Screen. Data for the cln2 rad14 strain (AID 165);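 note: 0% = growth equal to vehicle treated cultures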; conditions: S. cerevisiae cln2 rad14 strain, at 50.0 µM, active compounds read high
[5] = NCI Yeast Anticancer Drug Screen. Data for the bub3 strain (AID 167); conditions: S. cerevisiae bub3 mutant strain, at 50.0 µM, active compounds read high
[6] = NCI Yeast Anticancer Drug Screen. Data for the mlh1 rad18 strain (AID 175); conditions: S. cerevisiae mlh1 rad18 strain growth inhibition; at 50.0 µM; active compounds read high

| Compound | growth inhibition [1] | growth inhibition [2] | growth inhibition [3] | growth inhibition [4] | growth inhibition [5] | growth inhibition [6] |
| --- | --- | --- | --- | --- | --- | --- |
| O=C(O)C(CSSCC(Nc1ccc([N+](=O)[O-])cc1[N+](=O)[O-])C(=O)O)Nc1ccc([N+](=O)[O-])cc1[N+](=O)[O-] (stereo not given) | inactive: 30.6% | inactive: 9.45% | inactive: 43.5% | inactive: 2.9% | inactive: 2.8% | inactive: 47.3% |
| O=S(=O)(O)Oc1ccc(N(CCCl)CCCl)cc1 | inactive: -12.7% | inactive: 7.7% | inactive: -15.9% | inactive: 16.7% | inactive: -27% | inactive: -13.2% |
| COP(OC)c1ccc(C)cc1 | inactive: -2% | inactive: -14.3% | inactive: -1.65% | inactive: 4.3% | inactive: 9.4% | inactive: 3.15% |
| CC12CCCC1(OO)OOC2=O (stereo not given) | inactive: -10.9% | inactive: -1.85% | inactive: -13.8% | inactive: -40.5% | inactive: 3.25% | inactive: -17.3% |
| CC(C)SC(OC(=O)COc1ccc(Cl)cc1)C(Cl)(Cl)Cl (stereo not given) | inactive: -3.8% | inactive: -5.4% | inactive: 4.4% | inactive: -10.2% | inactive: -2.35% | inactive: 11.4% |
| COc1ccc(CN2CCCN(Cc3ccc(OC)cc3)P2(=O)Cl)cc1 | inactive: 7.2% | inactive: 11.1% | inactive: 22.2% | inactive: 1.35% | inactive: -12.6% | inactive: 28.2% |
| CCOP(=S)(OCC)OCC | inactive: 15.8% | inactive: -25.6% | inactive: 21.9% | inactive: -12.8% | inactive: -4.65% | inactive: 17.2% |
| O=c1c2c3c(sc2nc2n1CC(CBr)S2)CCCC3 (stereo not given) | inactive: 63.8% | inactive: 34.6% | inactive: 33.6% | inactive: 27.1% | inactive: 56.2% | inactive: 40% |
| CCOP(=O)(Nc1ccccc1)OCC | inactive: 9.9% | inactive: 12.1% | inactive: -4.2% | inactive: -13.2% | inactive: -5.35% | inactive: -2.05% |
| Nc1ccccc1[As](=O)(O)O | inactive: -3.7% | inactive: -12.9% | inactive: -23.4% | inactive: -2.95% | inactive: -28.2% | inactive: -28.6% |
| CC1(C)CC[P+](CCC[P+]2(c3ccccc3)CCC(C)(C)c3ccccc32)(c2ccccc2)c2ccccc21 (stereo not given) | inactive: -6.7% | inactive: -11.6% | inactive: -10.3% | inactive: -27.8% | inactive: -1.5% | inactive: 6.9% |
| O=[N+]([O-])N=C1NCCN1 | inactive: 11.3% | inactive: 9.1% | inactive: 10.9% | inactive: 17.6% | inactive: 10.4% | inactive: 12.8% |
| O=[N+]([O-])c1cccc(S(=O)(=O)N(CCCl)CCCl)c1 | inactive: -20.4% | inactive: -7.8% | inactive: 4.65% | inactive: -21% | inactive: 28.5% | inactive: 11.4% |
| CC=C(c1ccc(N(CC)CC)cc1)c1ccc(N(CC)CC)cc1 | inactive: 1.4% | inactive: 2.95% | inactive: 8.45% | inactive: -31.1% | inactive: 24.7% | inactive: 11.1% |
| C=C(C)C(=O)OC1C(=O)C2OC3C=C(C)C(=O)CC3(COC(C)=O)C1(C)C21CO1 (stereo not given) | inactive: 37.8% | inactive: 7.5% | inactive: 17.5% | inactive: 14.9% | inactive: -12.2% | inactive: -17.1% |
| CC(=N\N=C(/N)N[N+](=O)[O-])/C(C)=N/N=C(\N)N[N+](=O)[O-] | inactive: 5.9% | inactive: 25.6% | inactive: 3.6% | inactive: -1.25% | inactive: 38.2% | inactive: 26.6% |
| ClCCN1CN(CCCl)c2ccccc21 | inactive: -13.8% | inactive: -19.6% | inactive: -39.4% | inactive: -10.2% | inactive: -9.95% | inactive: -39.2% |
| CCN(CCCl)CCOc1ccc([N+](=O)[O-])cc1 | inactive: 4.95% | inactive: 6.35% | inactive: 9.7% | inactive: 2.4% | inactive: 6.4% | inactive: 14.8% |
| NS(=O)(=O)c1ccc(NC2=NCC(CI)S2)cc1 (stereo not given) | inactive: 2.45% | inactive: -0.3% | inactive: -9.55% | inactive: 0% | inactive: -11.4% | inactive: -12.8% |
| CC1CC[P+](c2ccccc2)(c2ccccc2)c2c1ccc1ccccc21 (stereo not given) | active: 99% | active: 99.4% | active: 99.2% | active: 96.8% | active: 98.2% | active: 99.2% |

From PubChem BioAssay (NCI)
